Antibody variant affinities, Ab-91 heavy chain, assay 2

Reference: Engelhart et al. 2022, doi:10.1038/s41597-022-01779-4. File: FLAb, binding data.

Antigen: PDVDLGDISGINAS, a 14-residue peptide of the SARS-CoV-2 spike HR2 region.

Parent: Ab-91, a human scFv built as VL, the linker GGGGSGGGGSGGGGS, VH. Only the CDRs of the heavy chain vary.
VL: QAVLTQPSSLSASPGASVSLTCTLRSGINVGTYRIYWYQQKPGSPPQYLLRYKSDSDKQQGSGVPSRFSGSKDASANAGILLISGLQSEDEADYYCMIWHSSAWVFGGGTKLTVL
VH: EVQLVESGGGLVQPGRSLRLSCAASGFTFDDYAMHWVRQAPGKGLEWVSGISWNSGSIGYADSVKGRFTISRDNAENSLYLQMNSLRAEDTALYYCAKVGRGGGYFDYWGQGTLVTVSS

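Phage display of a naive human antibody library on the peptide gave the parent. Variants in AAYL51 differ from the parent at up to three CDR positions; double and triple changes were sampled at random. Affinity was read by AlphaSeq, a pooled yeast mating assay with surface-displayed partners. Binding brings cells together so that they mate, and sequencing counts the barcode pairs among the diploids. Each replicate has its own calibration line, from reference interactions of the BCL2 family. Mating was done three times.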

Positions count from residue 1 of the parent VH; D30Q puts Q in place of D. Numbers give log10(Kd / nM), so 0 is 1 nM and 3 is 1 µM. Smaller is tighter. Averages over replicates are reported, and they cover detected replicates only. A pair that was not seen in that replicate is written "nd"; this usually means weak binding, but a binder can also be missed. In this assay the parent's reference entry averaged 1.86; its copy inside this library read 0.88.

changes	replicates, log10 nM	mean, log10 nM
D30Q/D62S/G103Q	4.17 / nd / nd	4.17
D30T/G50T/Y108M	5.88 / nd / 4.21	5.05
F27T/M34V/F106G	4.34 / 5.83 / nd	5.08
S57M/Y60L/D62L	3.29 / nd / 3.46	3.38
S57E/Y60L/A61G	1.60 / 1.35 / 1.38	1.44
F29E/Y32N/W53R	4.81 / nd / nd	4.81
M34L/N54M/S63P	4.59 / 4.40 / 3.86	4.28
T28P/G59D/G104Y	4.66 / 4.64 / nd	4.65
Y60I/V64Q/D107K	nd / 6.12 / 4.88	5.50
Y32C/A33S/K65L	3.49 / 3.68 / 3.03	3.40
T28L/G104T/F106Q	nd / nd / nd	nd
N54Q/G102Y	nd / nd / nd	nd
G59K/V99Q/G102F	nd / 3.10 / nd	3.10
A33Y/G50R/G103S	nd / nd / 3.92	3.92
D31M/I58G/G103C	nd / 5.80 / nd	5.80
Y32S/G59R/D62S	5.10 / nd / nd	5.10
G26Q/G102S	nd / nd / nd	nd
D31K/G103R/Y108D	nd / 4.38 / nd	4.38
G103K/F106Q/Y108L	1.31 / 3.03 / 1.81	2.05
T28E/S52G/V99Q	1.65 / 1.69 / 1.29	1.54
G59T/S63G/V99T	nd / nd / nd	nd
F29H/K65G	nd / nd / 4.22	4.22
S57V/Y105I	nd / nd / nd	nd
D30C/W53L/Y105F	4.90 / nd / nd	4.90

Second part, the sequence after the result:

replicates, log10 nM	mean, log10 nM	changes
nd / nd / nd	nd	T28I/A61H/Y105H
nd / nd / nd	nd	A61R/K65G/G102K
2.56 / 2.35 / 3.00	2.64	A33P/K65G/Y108M
nd / nd / nd	nd	F27W/D62C/F106V
2.36 / 2.17 / 2.05	2.19	Y32H/D62N/Y105Q
nd / nd / 3.71	3.71	A33K/Y60G/G100Q
6.25 / nd / nd	6.25	S55C/V99P/F106M
nd / nd / nd	nd	D31S/A33T/R101H
nd / 5.72 / 3.63	4.67	D31Y/M34R/N54T
nd / nd / nd	nd	Y32R/Y60F/Y108S
4.61 / 4.02 / 4.43	4.35	H35G/I58T/K65T
5.42 / 5.55 / nd	5.48	M34T/G103V/Y108C
5.35 / nd / 4.87	5.11	D62S/G103H/D107W
nd / nd / nd	nd	S55Q/K65F/G104K
1.78 / 1.81 / 0.99	1.53	W53R/K65F/Y108Q
nd / nd / nd	nd	H35F/D62H/S63H
nd / nd / nd	nd	I51G/S63T/Y108M
nd / 5.31 / nd	5.31	F29A/G104E/Y105S
5.72 / 5.05 / nd	5.38	G59L/V64N/Y108G
4.55 / nd / nd	4.55	A33N/W53G/G102A
5.75 / 4.72 / 5.67	5.38	F27E/G100R/G104D
nd / nd / nd	nd	F27D/G104T
4.09 / nd / nd	4.09	G56L/R101D/G103W
nd / nd / nd	nd	H35P/V64N/R101C

Empty control strains, which show no peptide, gave a signal in 21% of pairings with library AAYL51; the median was 4.54 and 95% of these signals were weaker than 3.26. No background was subtracted.